This note sets out measurements from patent US9913905B2, “Liquid pharmaceutical formulations for injection comprising thiamine pyrophosphate 1-(3-aminopropyl)-2-methyl-1H-imidazole and uses thereof” (EAGLE BIOLOGICS, INC., priority 2013, dated 2018).

In this data set the test system is TYSABRI®. In words: Viscosity of concentrated aqueous solutions of TYSABRI® (mVROC microfluidic viscometer). The data set is classed as physicochemical. As to conditions: TYSABRI® 206 mg/mL; organophosphate 0.25M.

`Cc1ncc(C[n+]2csc(CCOP(=O)(O)OP(=O)(O)O)c2C)c(N)n1.[Cl-]` [TPP, thiamine pyrophosphate] had a Viscosity of 59.6 ± 1.6 cP.
